From EP2948187B1, “HETEROCYCLES AND THEIR RADIOLABELED ANALOGS USEFUL AS COX-1 SELECTIVE INHIBITORS” (Universita' Degli Studi di Bari, priority 2013, dated 2014) come the findings set out here.

By UniProt entry, the sequences of proteins in these tests, tags left out. Residues count along the entry.
UniProt P05979, 25-600: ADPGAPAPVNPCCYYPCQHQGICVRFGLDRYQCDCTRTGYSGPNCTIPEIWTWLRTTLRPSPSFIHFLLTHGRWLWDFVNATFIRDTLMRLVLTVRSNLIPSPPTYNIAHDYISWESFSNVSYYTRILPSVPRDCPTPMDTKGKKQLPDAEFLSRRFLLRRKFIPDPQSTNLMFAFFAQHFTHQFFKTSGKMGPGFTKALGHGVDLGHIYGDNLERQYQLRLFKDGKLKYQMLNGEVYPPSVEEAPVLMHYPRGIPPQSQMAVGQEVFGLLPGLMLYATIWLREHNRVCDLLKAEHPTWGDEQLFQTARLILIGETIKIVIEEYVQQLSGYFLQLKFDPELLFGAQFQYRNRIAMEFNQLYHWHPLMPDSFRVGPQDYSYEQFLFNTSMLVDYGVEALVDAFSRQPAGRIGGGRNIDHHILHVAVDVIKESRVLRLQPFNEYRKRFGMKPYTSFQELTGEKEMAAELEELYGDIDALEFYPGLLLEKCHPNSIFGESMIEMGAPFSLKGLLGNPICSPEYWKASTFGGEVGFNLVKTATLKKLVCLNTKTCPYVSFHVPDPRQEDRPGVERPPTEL

Usually IC50 stands for the concentration at which inhibition is half-maximal.

For this assay, the target named is COX-1 (Ovis aries, UniProt P05979). Briefly: COX-1 inhibition assay (as disclosed in Chem. Med. Chem. 2012, 7, 629-641). The class given is biochemical. Here is the method:
The biological assays were carried out as disclosed in Chem. Med. Chem. 2012, 7, 629 - 641.

`Nc1onc(-c2ccc(Cl)o2)c1-c1ccccc1` [(XIII), 3-(5-chlorofuran-2-yl)-4-phenylisoxazol-5-amine] returned an IC50 of 1.1 µM. `Cc1onc(-c2ccc(Cl)o2)c1-c1ccc(N)cc1` [(XIV), 3-(5-chlorofuran-2-yl)-4-(4-aminophenyl)-5-methylisoxazole] came in with an IC50 of 4.3 µM.
